The record followed here is patent US20070282095.

For series [1], the target named is blood coagulation factor 8 (UniProt P00451).
Series [2] has as its target blood coagulation factor 13 (Fibrogammin P) (UniProt P00488).

Regarding “205A43A thrombin (serine 205 to alanine, histidine 43 to alanine in B chain)”, the “APTT of standard plasma, 50 µg/ml derivative” value (“APTT … 50 µg/ml derivative” for short) in series [1] was “the APTT of the 205A43A thrombin was 78 seconds, which prolonged the APTT to 1.7 folds”.

With “203A205G thrombin (glycine at position 203 in B chain substituted by alanine, serine at position 205 substituted by glycine)”, the “APTT … 50 µg/ml derivative” value in series [1] was “in the 203A205G thrombin it took 48 seconds, which was prolonged by 1.09 folds”.

In the case of “203A205A thrombin (glycine 203 to alanine, serine 205 to alanine in B chain)”, the “APTT of standard plasma, 100 µg/ml derivative” value in series [1] is reported as “the APTT of the control was 55 seconds while the APTT of the 203A205A thrombin was 59 seconds”.

Consider “205A thrombin (serine at position 205 in B chain substituted by alanine)”, for which, in series [1], the “APTT … 50 µg/ml derivative” value is listed as “the APTT of the control was 41 seconds while the APTT of the 205A thrombin was 62 seconds”.

For the substance “77E203A205G thrombin (lysine 77 to glutamic acid, glycine 203 to alanine, serine 205 to glycine in B chain)”, the “APTT … 50 µg/ml derivative” value in series [1] is given as “the APTT of the 77E203A205G thrombin was 74 seconds, which showed that APTT was prolonged by 1.68 folds”.

As to “205G thrombin (serine at position 205 in B chain substituted by glycine)”, the “cleavage of FXIII A chain, SDS-PAGE (method B), 37°C 3 hours” value in series [2] is on record as “A band of FXIII which had been cleaved by about 50% was detected”.
